# Test results reported in ChEMBL document CHEMBL1138809, “A novel design strategy for stable metal complexes of nitrogen mustards as bioreductive prodrugs” (2004).
# System: K562
# Experiment: Inhibitory concentration against human chronic myeloid leukemia cell line K562
smiles,measurement,value
ClCCN1CCN(CCCl)CCN(CCCl)CCN(CCCl)CC1,pIC50,4.66

# pIC50: −log10 of the molar value.
